Data published in US20230302083A1, “HIGHLY-NETWORKED C[…] COMPOSITION” (priority 2020, published 2023).

System: HLA class I alleles
Format: cell-based, human

Sequence | 50% Experimental Binder
TEILPVSM [B40 COVID 1] | YES
ILPVSMTK [A3 COVID 4] | YES
